Results taken from US11643388B2, “Inhibitors of alpha 2 beta 1 integrin and methods of use thereof” (The Regents of the University of California, priority 2020, dated 2023).

Amino acid sequences for entries named in this document (tags omitted). Residues count along the entry.
UniProt P05556, 21-798 limits assumed: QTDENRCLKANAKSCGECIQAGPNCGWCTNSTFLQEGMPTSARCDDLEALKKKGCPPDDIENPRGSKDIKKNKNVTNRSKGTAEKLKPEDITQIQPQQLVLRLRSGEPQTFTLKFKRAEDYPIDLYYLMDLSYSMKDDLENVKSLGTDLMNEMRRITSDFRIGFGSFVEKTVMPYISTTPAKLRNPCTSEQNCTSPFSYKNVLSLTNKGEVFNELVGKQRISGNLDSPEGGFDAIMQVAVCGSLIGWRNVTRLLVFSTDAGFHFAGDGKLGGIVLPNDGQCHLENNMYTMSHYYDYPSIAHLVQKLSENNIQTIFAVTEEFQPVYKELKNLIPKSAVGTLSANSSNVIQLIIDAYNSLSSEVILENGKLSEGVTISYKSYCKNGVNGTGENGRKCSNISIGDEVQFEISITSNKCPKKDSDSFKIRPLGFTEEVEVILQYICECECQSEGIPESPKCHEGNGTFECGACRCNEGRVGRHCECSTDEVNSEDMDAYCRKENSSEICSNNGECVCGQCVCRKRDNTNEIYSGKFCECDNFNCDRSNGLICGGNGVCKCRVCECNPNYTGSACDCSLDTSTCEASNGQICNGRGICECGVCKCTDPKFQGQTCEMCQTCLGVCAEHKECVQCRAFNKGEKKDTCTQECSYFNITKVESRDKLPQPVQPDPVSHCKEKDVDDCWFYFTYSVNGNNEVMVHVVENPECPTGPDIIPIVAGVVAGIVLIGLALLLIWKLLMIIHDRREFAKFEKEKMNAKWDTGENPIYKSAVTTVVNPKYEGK
UniProt P17301, 30-1181 limits assumed: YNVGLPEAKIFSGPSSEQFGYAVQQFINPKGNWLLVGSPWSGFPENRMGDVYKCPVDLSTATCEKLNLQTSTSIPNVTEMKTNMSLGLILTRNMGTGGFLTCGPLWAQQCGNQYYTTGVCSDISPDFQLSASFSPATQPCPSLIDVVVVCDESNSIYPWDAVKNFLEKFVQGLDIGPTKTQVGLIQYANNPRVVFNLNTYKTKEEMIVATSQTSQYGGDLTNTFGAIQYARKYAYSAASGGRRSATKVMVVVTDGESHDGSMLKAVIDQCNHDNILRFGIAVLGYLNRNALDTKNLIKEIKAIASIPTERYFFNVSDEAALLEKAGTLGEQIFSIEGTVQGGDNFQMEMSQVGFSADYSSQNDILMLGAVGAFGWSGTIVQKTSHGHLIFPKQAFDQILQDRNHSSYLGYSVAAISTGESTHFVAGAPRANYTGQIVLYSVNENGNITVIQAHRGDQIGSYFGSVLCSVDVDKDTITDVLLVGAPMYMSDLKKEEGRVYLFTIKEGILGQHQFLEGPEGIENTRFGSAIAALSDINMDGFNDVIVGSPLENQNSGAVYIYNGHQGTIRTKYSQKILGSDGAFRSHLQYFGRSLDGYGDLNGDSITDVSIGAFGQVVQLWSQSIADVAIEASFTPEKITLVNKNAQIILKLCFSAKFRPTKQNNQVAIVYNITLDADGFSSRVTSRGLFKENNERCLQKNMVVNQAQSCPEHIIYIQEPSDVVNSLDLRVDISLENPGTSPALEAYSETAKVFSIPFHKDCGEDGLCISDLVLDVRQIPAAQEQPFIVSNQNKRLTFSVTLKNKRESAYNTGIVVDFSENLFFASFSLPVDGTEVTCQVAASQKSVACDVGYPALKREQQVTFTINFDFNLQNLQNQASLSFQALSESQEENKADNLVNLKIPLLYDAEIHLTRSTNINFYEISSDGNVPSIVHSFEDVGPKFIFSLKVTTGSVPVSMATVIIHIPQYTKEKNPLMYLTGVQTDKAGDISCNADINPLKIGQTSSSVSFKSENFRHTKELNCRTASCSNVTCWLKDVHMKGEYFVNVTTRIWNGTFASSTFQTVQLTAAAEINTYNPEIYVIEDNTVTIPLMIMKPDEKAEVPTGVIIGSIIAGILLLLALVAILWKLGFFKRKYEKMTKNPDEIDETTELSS

Target: α2β1 (Homo sapiens, UniProt P05556+P17301)
Assay: α2β1 cell adhesion
Assay type: cell-based
Settings: read-out: α2β1 Cell Adhesion IC50

With `O=C(NC[C@H](NC(=O)c1ccc(C(=O)NCc2ccccc2O)cc1Cl)C(=O)O)N[C@@H]1CCc2ccccc21` the IC50 was < 500 nM.
